Yeast mating assay B: variants of the scFv Ab-14

Values reported by Li et al. 2023, doi:10.1038/s41467-023-39022-2 (FLAb copy).

Target peptide (SARS-CoV-2 spike, HR2 region): PDVDLGDISGINAS

Parent scFv Ab-14: VH joined to VL by three GGGGS repeats. Changes lie in the heavy chain CDRs alone.
VH: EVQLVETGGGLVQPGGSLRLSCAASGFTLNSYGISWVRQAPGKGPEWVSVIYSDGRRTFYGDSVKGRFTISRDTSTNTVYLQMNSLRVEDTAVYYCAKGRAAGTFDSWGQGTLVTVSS
VL: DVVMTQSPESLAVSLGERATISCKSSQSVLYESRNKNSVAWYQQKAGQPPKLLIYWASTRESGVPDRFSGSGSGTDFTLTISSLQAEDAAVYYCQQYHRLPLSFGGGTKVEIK

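Phage display of a naive human antibody library on the peptide gave the parent. This is the validation round: designs drawn from the data on random variants, tested in the same kind of assay. Their group label is 14H_En_Gibbs (En: ensemble of fine-tuned language models; Gibbs: Gibbs sampling). In AlphaSeq, yeast of one mating type display the scFv and yeast of the other type display the target. Pairs that bind mate more often; barcode pairs of the diploids are counted by sequencing. Scores were corrected for input abundance and mapped to Kd with protein pairs of known affinity run in the same pool. Each pool was mated in six replicate cultures.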

Each variant is given by its three heavy chain CDRs, as the data file delimits them; those of the parent are GFTLNSYGIS, VIYSDGRRTFYGDSVK, GRAAGTFDS.
Values are log10 of the apparent Kd in nM; lower means stronger binding.
"nd" marks a missing value. The strain was present, yet no cells mated with the target were sequenced in that replicate, which points to weak or no binding.
The authors' rule: three or more of the six replicates give a measured affinity, fewer mean a poor binder.
The range of this assay differs from that of the first round, and the authors advise against merging the two.
Of ten entries with the parent sequence, four were seen in most replicates (averages 0.34 to 2.37), three in one and three in none, so single entries are noisy.
As a blank, each scFv also met three strains without target: over all heavy chain designs, 1% of these pairings were detected, typically at 2.08 and seldom below 0.84. For each scFv, signals with the empty controls are counted beside the result, with their mean in brackets.

CDR-H1	CDR-H2	CDR-H3	replicates, log10 nM	empty controls
GFDIMEYGIS	VIYADGMRKAYENNVK	GGEVRSVVI	nd / nd / nd / nd / nd / nd	0/18
GMDLEEYGIS	VIYADGMRTYAVDSVK	GDQGGNLLY	nd / nd / nd / nd / nd / nd	0/18
GFDLNEYGVS	VIYADGMRSSYQDSVK	GSNVSLFDV	nd / 2.14 / nd / nd / nd / nd	1/18 (2.23)
GFNLDEYGIS	VIYADGKRSMYADKVK	GVDGDFMMD	nd / nd / nd / nd / nd / 0.90	1/18 (1.44)
GFGLDEYGIS	VIYADGMRAWYATNVK	GYQAGVFST	nd / 2.68 / nd / 2.51 / 2.70 / nd	1/18 (2.24)
GDDLEEYGIS	VIYADGRRSAYTDNVK	GHAGNIFMS	nd / nd / nd / nd / nd / nd	0/18
GFNLDEYGIS	VIYADGYRRAYAQEVK	GMNSGEGFT	nd / nd / nd / nd / 1.86 / nd	1/18 (0.83)
GFTLDEYGIS	VIYADGMRTQYADQVK	GLLVNTVMT	nd / nd / nd / nd / nd / nd	0/18
GFDIEDFGIS	VIYADGKRSAYSNSVK	GLMAGTMGY	nd / 1.43 / 3.32 / 1.96 / 2.77 / 2.55	0/18
GFDINEYGVS	VIYADGMRTAYRDSVK	GEGKWINLI	nd / nd / nd / nd / nd / nd	1/18 (0.33)
GFNLDEYGVS	VIYADGIRCTYADAVK	GKHGGAFFV	nd / nd / nd / nd / nd / nd	0/18
GQSLEDYGIS	VIYADGQRNAAADEVK	GENAGTFDI	nd / nd / nd / nd / nd / nd	0/18
GFNLMEYGIS	VIYADGTRTAYANTVK	GKYVDTFVD	-0.03 / -0.51 / -0.95 / -0.50 / -0.55 / -0.23	0/18
GFSLDEYGVS	VIYADGLRTQYVNDVK	GLESFAFKM	nd / nd / nd / nd / nd / 1.78	0/18
GFDINEYGIS	VIYADGMRQAVSQNVK	GNINQFDAV	nd / nd / nd / nd / nd / nd	0/18
GDNLEEYGIS	VIYADGKRSVYADSVK	GHISGWFAI	nd / nd / nd / nd / nd / nd	0/18
GFDVNEYGIS	VIYADGRRTQYVQDVK	GKNNMVLYV	nd / nd / nd / nd / nd / nd	0/18
GFNLDEYGIS	VIYADGVRTAYVDKVK	GFGQVDSLI	nd / nd / nd / nd / nd / nd	0/18
GYDLEEYGIS	VIYADGRRTAYADNVK	GMSGADGMF	nd / nd / nd / nd / nd / nd	0/18
GFGLSEYGIS	VIYADGMRTSYDDNIK	GALAGTFDE	2.52 / 2.69 / 0.55 / 1.81 / 2.17 / 1.75	0/18
GFELNEFGIS	VIYADGMRQAYRDDVK	GDISGDFML	0.32 / 0.59 / nd / 0.01 / 0.94 / 0.62	1/18 (1.75)
GNDLQEYGIS	VIYADGLRVMYANSVK	GQLDVVVLV	nd / nd / nd / nd / nd / nd	0/18
GFGLGEYGIS	VIYADGHRTNYSTSVK	GTIGGTFFQ	nd / nd / nd / nd / 2.57 / nd	1/18 (2.00)
GFDLNEYGVS	VIYADGVRSAYTSNVK	GVGNVDIML	nd / nd / nd / nd / nd / nd	1/18 (1.36)
GFGLEEYGIS	VIYADGMRTFYAEKVK	GNFDLQEGY	nd / nd / nd / nd / nd / nd	0/18
GFGLAEYGIS	VIYADGIRKSYANKVK	GRLSGTVIM	nd / nd / nd / nd / nd / nd	0/18
GFSLNEYGIS	VIYADGIRQHYKDKVK	GVVFGNVLF	nd / nd / nd / nd / nd / nd	0/18
GFLLDEYGIS	VIYADGQRTAYTDDVK	GYVGGIGTI	nd / nd / nd / nd / nd / nd	0/18
GFSLNEYGIS	VIYADGIRQHYSDKVK	GVVFGNVMF	nd / nd / nd / nd / nd / nd	0/18
GFGLNEYGIS	VIYADGQRKYYADNVK	GHFGEDGQV	nd / nd / nd / nd / nd / nd	0/18
GFELDEYGIS	VIYADGKRKAYDQAVK	GKTGGVKLD	nd / nd / nd / nd / nd / nd	0/18
GKGLDEYGIS	VIYADGMRTEYQQSVK	GDTGSIFFV	nd / nd / nd / nd / nd / nd	0/18
GDVLDEYGIS	VIYADGRRTFYTQDVK	GKKAGSLSV	nd / nd / 2.37 / nd / nd / nd	0/18
GFDLDQYGIS	VIYADGKRVAYTDDVK	GVTGGMALV	nd / nd / nd / nd / nd / nd	0/18
GFNLDECGIS	VIYADGKRSAYANKVK	GETGSFFST	nd / nd / nd / nd / nd / nd	1/18 (2.24)
GFDLNEYGIS	VIYADGMRRAYAQNFK	GVTGGGLHI	nd / nd / nd / nd / nd / nd	0/18
GFDLNEYGVS	VIYADGIRTKYADSFK	GDVVVALFQ	nd / nd / nd / nd / nd / nd	0/18
GENINEYGIS	VIYADGRRTAYAEDVK	GQSGGTIDT	nd / nd / nd / nd / nd / nd	0/18
GFDLQEYGIS	VIYADGQRVNAVSQVK	GEQAGTFKL	nd / nd / nd / nd / nd / nd	0/18
GFDLNEYGIS	VIYADGFREAYAESVK	GLIQTGWTV	nd / nd / nd / nd / nd / nd	0/18
GFKIDEYGIS	VIYADGMRAHYSDAVK	GVKGGNVVM	1.38 / nd / nd / nd / nd / nd	0/18
SFSLDDYGIS	VIYADGMRKAYVDEVK	GYVAGTFDI	0.06 / -0.26 / -0.39 / -0.01 / -0.24 / -0.22	0/18
GFDIEEYGIS	VIYADGVRTMYADDVK	GISKTYSLT	nd / nd / nd / nd / nd / nd	0/18
GNDINEYGIS	VIYADGMRTAYLNDVK	GQLGGLFFM	nd / nd / nd / nd / nd / nd	0/18
GMDLNEYGIS	VIYADGLRTAYIDAVK	GKGSVIIGH	nd / nd / nd / nd / nd / nd	0/18
GFSLDEYGIS	VIYADGVRTQYHPKVK	GLGGFIFDL	nd / nd / nd / nd / nd / nd	0/18

The last 7 entries again:

CDR-H1	CDR-H2	CDR-H3	replicates, log10 nM	empty controls
GFDLNEYGIS	VIYADGFREAYAESVK	GLIQTGWTV	nd / nd / nd / nd / nd / nd	0/18
GFKIDEYGIS	VIYADGMRAHYSDAVK	GVKGGNVVM	1.38 / nd / nd / nd / nd / nd	0/18
SFSLDDYGIS	VIYADGMRKAYVDEVK	GYVAGTFDI	0.06 / -0.26 / -0.39 / -0.01 / -0.24 / -0.22	0/18
GFDIEEYGIS	VIYADGVRTMYADDVK	GISKTYSLT	nd / nd / nd / nd / nd / nd	0/18
GNDINEYGIS	VIYADGMRTAYLNDVK	GQLGGLFFM	nd / nd / nd / nd / nd / nd	0/18
GMDLNEYGIS	VIYADGLRTAYIDAVK	GKGSVIIGH	nd / nd / nd / nd / nd / nd	0/18
GFSLDEYGIS	VIYADGVRTQYHPKVK	GLGGFIFDL	nd / nd / nd / nd / nd / nd	0/18